# Measurements taken from ChEMBL document CHEMBL6121062, “Discovery, Optimization, and Preclinical Pharmacology of EP652, a METTL3 Inhibitor with Efficacy in Liquid and Solid Tumor Models” (J Med Chem, 2025).
# Sequences of proteins named here, by UniProt entry; tags and fusion partners are left off.
# UniProt Q86U44, whole entry: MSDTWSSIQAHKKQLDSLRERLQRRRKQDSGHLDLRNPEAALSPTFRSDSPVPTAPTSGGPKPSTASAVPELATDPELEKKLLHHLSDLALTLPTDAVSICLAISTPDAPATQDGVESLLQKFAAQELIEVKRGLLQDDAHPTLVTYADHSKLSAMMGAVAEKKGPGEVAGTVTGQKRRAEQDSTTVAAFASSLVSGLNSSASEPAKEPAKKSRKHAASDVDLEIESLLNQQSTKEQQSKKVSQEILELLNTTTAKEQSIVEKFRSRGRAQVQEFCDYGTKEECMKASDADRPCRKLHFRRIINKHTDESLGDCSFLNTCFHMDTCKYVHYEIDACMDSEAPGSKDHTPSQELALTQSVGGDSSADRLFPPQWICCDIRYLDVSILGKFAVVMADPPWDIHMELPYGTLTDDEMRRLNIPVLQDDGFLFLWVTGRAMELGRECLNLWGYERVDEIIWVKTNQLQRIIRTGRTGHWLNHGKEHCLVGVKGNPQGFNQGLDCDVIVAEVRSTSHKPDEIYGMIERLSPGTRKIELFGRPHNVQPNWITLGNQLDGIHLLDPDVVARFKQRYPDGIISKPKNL
# Assays:
# [1] = Selectivity ratio of inhibition of DNMT1 (unknown origin) to inhibition of METTL3/14 (unknown origin)
# [2] = biological target: N6-adenosine-methyltransferase catalytic subunit (Homo sapiens) (UniProt Q86U44); assay: Inhibition of METTL3 in human SK-OV-3 cells assessed as fold change in Bcl-2 expression incubated for 72 hrs by Western blot analysis relative to control; type: cell-based
# [3] = Selectivity ratio of inhibition of SMYD2 (unknown origin) to inhibition of METTL3/14 (unknown origin)
# [4] = Selectivity ratio of inhibition of DNMT3a (unknown origin) to inhibition of METTL3/14 (unknown origin)
# [5] = biological target: N6-adenosine-methyltransferase catalytic subunit (Homo sapiens) (UniProt Q86U44); assay: Inhibition of METTL3 in human FaDu cells assessed as fold change in Bax expression incubated for 72 hrs by Western blot analysis relative to control; type: cell-based
# [6] = Selectivity ratio of inhibition of EZH2 Y641F mutant complex (unknown origin) to inhibition of METTL3/14 (unknown origin)
# [7] = Selectivity ratio of inhibition of PRMT4 (unknown origin) to inhibition of METTL3/14 (unknown origin)
# [8] = Selectivity ratio of inhibition of SUV420H1TV2 (unknown origin) to inhibition of METTL3/14 (unknown origin)
# [9] = Selectivity ratio of inhibition of PRMT5 C449S mutant/MEP50 complex (unknown origin) to inhibition of METTL3/14 (unknown origin)
# [10] = Selectivity ratio of inhibition of DNMT3b/3L (unknown origin) to inhibition of METTL3/14 (unknown origin)
# [11] = Selectivity ratio of inhibition of SETDB1 (unknown origin) to inhibition of METTL3/14 (unknown origin)
# [12] = Selectivity ratio of inhibition of NSD3 (unknown origin) to inhibition of METTL3/14 (unknown origin)
# [13] = biological target: N6-adenosine-methyltransferase catalytic subunit (Homo sapiens) (UniProt Q86U44); assay: Inhibition of METTL3 in human A549 cells assessed as fold change in Bcl-2 expression incubated for 72 hrs by Western blot analysis relative to control; type: cell-based
# [14] = Selectivity ratio of inhibition of SUV39H2 (unknown origin) to inhibition of METTL3/14 (unknown origin)
# [15] = Selectivity ratio of inhibition of NSD2 (unknown origin) to inhibition of METTL3/14 (unknown origin)
# [16] = Selectivity ratio of inhibition of PRMT1 (unknown origin) to inhibition of METTL3/14 (unknown origin)
# [17] = Selectivity ratio of inhibition of DNMT3b (unknown origin) to inhibition of METTL3/14 (unknown origin)
# [18] = Selectivity ratio of inhibition of SUV39H1 (unknown origin) to inhibition of METTL3/14 (unknown origin)
# [19] = Selectivity ratio of inhibition of MLL1 complex (unknown origin) to inhibition of METTL3/14 (unknown origin)
# [20] = Selectivity ratio of inhibition of MLL3 complex (unknown origin) to inhibition of METTL3/14 (unknown origin)
# [21] = Selectivity ratio of inhibition of NSD2 T1150A mutant (unknown origin) to inhibition of METTL3/14 (unknown origin)
# [22] = Selectivity ratio of inhibition of SMYD3 (unknown origin) to inhibition of METTL3/14 (unknown origin)
# [23] = Selectivity ratio of inhibition of NSD1 (unknown origin) to inhibition of METTL3/14 (unknown origin)
# [24] = Selectivity ratio of inhibition of PRMT3 (unknown origin) to inhibition of METTL3/14 (unknown origin)
# [25] = Selectivity ratio of inhibition of ASHIL (unknown origin) to inhibition of METTL3/14 (unknown origin)
# [26] = Selectivity ratio of inhibition of EZH1 complex (unknown origin) to inhibition of METTL3/14 (unknown origin)
# [27] = Selectivity ratio of inhibition of PRMT8 (unknown origin) to inhibition of METTL3/14 (unknown origin)
# [28] = Selectivity ratio of inhibition of SET1b complex (unknown origin) to inhibition of METTL3/14 (unknown origin)
# [29] = Selectivity ratio of inhibition of GLP (unknown origin) to inhibition of METTL3/14 (unknown origin)
# [30] = Selectivity ratio of inhibition of PRMT6 (unknown origin) to inhibition of METTL3/14 (unknown origin)
# [31] = Selectivity ratio of inhibition of G9a (unknown origin) to inhibition of METTL3/14 (unknown origin)
# [32] = Selectivity ratio of inhibition of SETD2 (unknown origin) to inhibition of METTL3/14 (unknown origin)
# [33] = Selectivity ratio of inhibition of SET8 (unknown origin) to inhibition of METTL3/14 (unknown origin)
# [34] = biological target: N6-adenosine-methyltransferase catalytic subunit (Homo sapiens) (UniProt Q86U44); assay: Inhibition of METTL3 in human FaDu cells assessed as fold change in Bcl-2 expression incubated for 72 hrs by Western blot analysis relative to control; type: cell-based
# [35] = Selectivity ratio of inhibition of MLL2 complex (unknown origin) to inhibition of METTL3/14 (unknown origin)
# [36] = Selectivity ratio of inhibition of PRMT7 (unknown origin) to inhibition of METTL3/14 (unknown origin)
# [37] = Selectivity ratio of inhibition of PRMT5/MEP50 complex (unknown origin) to inhibition of METTL3/14 (unknown origin)
# [38] = Selectivity ratio of inhibition of FTO (unknown origin) to inhibition of METTL3/14 (unknown origin)
# [39] = Selectivity ratio of inhibition of NSD2 E1099K mutant (unknown origin) to inhibition of METTL3/14 (unknown origin)
# [40] = Selectivity ratio of inhibition of SET7/9 (unknown origin) to inhibition of METTL3/14 (unknown origin)
# [41] = biological target: N6-adenosine-methyltransferase catalytic subunit (Homo sapiens) (UniProt Q86U44); assay: Inhibition of METTL3 in human SK-OV-3 cells assessed as fold change in Bax expression incubated for 72 hrs by Western blot analysis relative to control; type: cell-based
# [42] = Selectivity ratio of inhibition of METTL1 (unknown origin) to inhibition of METTL3/14 (unknown origin)
# [43] = Selectivity ratio of inhibition of DOT1L (unknown origin) to inhibition of METTL3/14 (unknown origin)
# [44] = Selectivity ratio of inhibition of EZH2 complex (unknown origin) to inhibition of METTL3/14 (unknown origin)
# [45] = biological target: N6-adenosine-methyltransferase catalytic subunit (Homo sapiens) (UniProt Q86U44); assay: Inhibition of METTL3 in human A549 cells assessed as fold change in Bax expression incubated for 72 hrs by Western blot analysis relative to control; type: cell-based
# [46] = Selectivity ratio of inhibition of PRDM9 (unknown origin) to inhibition of METTL3/14 (unknown origin)
compound,measurement,setting,value
C[C@@H](n1cc(-c2cncc(N(C)C)c2)nn1)n1ccc(N2CCC[C@@H](NCC3CC3)C2)cc1=O,Ratio,[1],> 500
same,fold change (FC),[2],0.9
same,Ratio,[3],> 500
same,Ratio,[4],> 500
same,fold change (FC),[5],1.9
same,Ratio,[6],> 500
same,Ratio,[7],> 500
same,Ratio,[8],> 500
same,Ratio,[9],> 500
same,Ratio,[10],> 500
same,Ratio,[11],> 500
same,Ratio,[12],> 500
same,fold change (FC),[13],0.3
same,Ratio,[14],> 500
same,Ratio,[15],> 500
same,Ratio,[16],> 500
same,Ratio,[17],> 500
same,Ratio,[18],> 500
same,Ratio,[19],> 500
same,Ratio,[20],> 500
same,Ratio,[21],> 500
same,Ratio,[22],> 500
same,Ratio,[23],> 500
same,Ratio,[24],> 500
same,Ratio,[25],> 500
same,Ratio,[26],> 500
same,Ratio,[27],> 500
same,Ratio,[28],> 500
same,Ratio,[29],> 500
same,Ratio,[30],> 500
same,Ratio,[31],> 500
same,Ratio,[32],> 500
same,Ratio,[33],> 500
same,fold change (FC),[34],0.6
same,Ratio,[35],> 500
same,Ratio,[36],> 500
same,Ratio,[37],> 500
same,Ratio,[38],> 500
same,Ratio,[39],> 500
same,Ratio,[40],> 500
same,fold change (FC),[41],1.6
same,Ratio,[42],> 500
same,Ratio,[43],> 500
same,Ratio,[44],> 500
same,fold change (FC),[45],1.6
same,Ratio,[46],> 500
